Target: Acetylcholinesterase (Rattus norvegicus, UniProt P37136)
Experiment: Inhibition of rat brain Acetylcholinesterase using acetylthiocholine as substrate in presence of BChE inhibitor ethopropazine by spectrophotometric method

## c1ccc2c(NCCCCCCCCCNc3c4c(nc5ccccc35)CCCC4)c3c(nc2c1)CCCC3
  IC50: 0.77 nM
